## Ab-14 heavy chain CDR variants: yeast mating affinities

Target peptide (SARS-CoV-2 spike, HR2 region): PDVDLGDISGINAS

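Phage display of a naive human antibody library on the peptide gave the parent. In library AAYL49, one, two or three CDR residues were substituted; doubles and triples were drawn at random. In AlphaSeq, yeast of one mating type display the scFv and yeast of the other type display the target. Binding brings cells together so that they mate, and sequencing counts the barcode pairs among the diploids. Read counts were normalised to the haploid input and turned into Kd by a linear fit to BCL2-family pairs of known affinity, for each replicate. There are three technical replicates.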

Parent scFv Ab-14: VH joined to VL by three GGGGS repeats. Changes lie in the heavy chain CDRs alone.
VH: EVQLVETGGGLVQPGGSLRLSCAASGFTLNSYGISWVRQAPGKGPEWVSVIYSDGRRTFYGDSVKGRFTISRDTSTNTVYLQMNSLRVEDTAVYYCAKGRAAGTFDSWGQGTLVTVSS
VL: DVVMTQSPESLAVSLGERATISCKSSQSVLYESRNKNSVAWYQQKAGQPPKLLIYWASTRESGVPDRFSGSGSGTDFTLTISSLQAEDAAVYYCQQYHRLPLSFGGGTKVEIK

Positions count from residue 1 of the parent VH; L29M puts M in place of L. Numbers give log10(Kd / nM), so 0 is 1 nM and 3 is 1 µM. Smaller is tighter. A mean of the replicates is given; it leaves out those without a signal. Where no diploid with the target was found in any replicate, the entry reads "no signal": below detection, most likely a poor binder, though not proof of it. The list is sorted by this average, lowest first, undetected variants last. Three control strains display no target. For library AAYL49, 15% of the pairings with them gave a signal, with a median of 4.06 and one signal in twenty below 2.83, so weak values seen in few replicates may be background. Parent in this assay: reference entry 0.65, copy in this library 4.11 (one replicate of three).

With L29M/R56H/G61K the result was 2.59 (2 of 3 replicates).
With G61K/D62I the result was 2.62 (1 of 3 replicates).
With S31D/D62V/A101R the result was 2.71 (3 of 3 replicates).
With I34Y/Y52Q/T104D the result was 4.04 (1 of 3 replicates).
With V50Q/D106F/S107L the result was 4.06 (1 of 3 replicates).
With F27V/F59T/S107L the result was 4.14 (3 of 3 replicates).
With N30I/S35K/R57F the result was 4.21 (1 of 3 replicates).
With T58M/F59R/S63R the result was 4.25 (1 of 3 replicates).
With L29T/S31K/R100W the result was 4.42 (1 of 3 replicates).
With I34L/R57A/A101P the result was 4.48 (3 of 3 replicates).
With I34R/D62Q/T104A the result was 4.53 (1 of 3 replicates).
With I51T/R57T/A102Y the result was 4.60 (2 of 3 replicates).
With N30C/D54C/A102C the result was 4.69 (3 of 3 replicates).
With I34E/R57H/T58G the result was 5.15 (1 of 3 replicates).
With R56C/A102V/T104H the result was 5.34 (1 of 3 replicates).
With N30K/F59L/F105V the result was 5.67 (3 of 3 replicates).
With I34S/S35F/V50E the result was no signal (0 of 3 replicates).
With F27G/I34Q/T104C the result was no signal (0 of 3 replicates).
With Y52L/D62W/V64P the result was no signal (0 of 3 replicates).
With V50W/R57G/K65R the result was no signal (0 of 3 replicates).
With G26I/N30M/T58W the result was no signal (0 of 3 replicates).
With N30G/Y60M/A101V the result was no signal (0 of 3 replicates).
With I51M/Y60G/G103K the result was no signal (0 of 3 replicates).
With L29F/I51K/D62Q the result was no signal (0 of 3 replicates).
With V64R/A101C/F105M the result was no signal (0 of 3 replicates).
With G61I/S63I/V64A the result was no signal (0 of 3 replicates).
With G61N/V64L/T104R the result was no signal (0 of 3 replicates).
With Y32S/R56N/T104Q the result was no signal (0 of 3 replicates).
With T28W/V64I/A101D the result was no signal (0 of 3 replicates).
With S53H/D54K/G99R the result was no signal (0 of 3 replicates).
With G33E/I34Y/G61F the result was no signal (0 of 3 replicates).
With I51G/D54A the result was no signal (0 of 3 replicates).
With R56F/R100W/T104G the result was no signal (0 of 3 replicates).
With G26P/S53K/G61P the result was no signal (0 of 3 replicates).

The last 5 entries again:

changes	mean log10 Kd (nM)	replicates with signal
S53H/D54K/G99R	no signal	0/3
G33E/I34Y/G61F	no signal	0/3
I51G/D54A	no signal	0/3
R56F/R100W/T104G	no signal	0/3
G26P/S53K/G61P	no signal	0/3

Reference: Engelhart et al. 2022, doi:10.1038/s41597-022-01779-4. File: FLAb, binding data.